Amino acid sequences for entries named in this document (tags omitted).
UniProt P30560, whole entry, looked up: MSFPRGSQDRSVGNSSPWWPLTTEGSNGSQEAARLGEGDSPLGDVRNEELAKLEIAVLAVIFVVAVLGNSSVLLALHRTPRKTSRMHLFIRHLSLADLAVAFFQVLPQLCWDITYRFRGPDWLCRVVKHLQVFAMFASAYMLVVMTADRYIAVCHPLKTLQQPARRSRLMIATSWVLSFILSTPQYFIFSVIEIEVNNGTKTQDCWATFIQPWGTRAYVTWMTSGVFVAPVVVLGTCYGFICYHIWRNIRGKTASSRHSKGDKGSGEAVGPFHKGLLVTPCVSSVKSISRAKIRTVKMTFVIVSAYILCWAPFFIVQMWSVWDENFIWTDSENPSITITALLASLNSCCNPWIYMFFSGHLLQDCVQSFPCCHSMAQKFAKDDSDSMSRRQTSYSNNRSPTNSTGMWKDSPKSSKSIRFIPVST

In ChEMBL document CHEMBL1126733, “Orally active, nonpeptide vasopressin V1 antagonists. A novel series of 1-(1-substituted 4-piperidyl)-3,4-dihdyro-2(1H)-quinolinone” (J Med Chem, 1993):

Molecular target: Vasopressin V1a receptor (Rattus norvegicus) (UniProt P30560)
Test: Inhibition expressed as percent change in diastolic blood pressure increased by AVP (30 milliunits / kg, iv) before and after oral administration at uM/kg
Type: functional, organism-based
Conditions: Artery

O=CNCCCOc1ccc(C(=O)N2CCC(N3C(=O)CCc4ccccc43)CC2)cc1
inhibition: 50%
